From ChEMBL document CHEMBL4304752, “Synthesis and Molecular Properties of Nerve Agent Reactivator HLö-7 Dimethanesulfonate” (2019)
Active and inactive are the calls of the source. No cut-off for these calls is given here.

How the values were obtained:
[1] = target: T1, Acetylcholinesterase (Mus musculus) (UniProt P21836); assay: Ex vivo reactivation of GF-induced inhibition of C57/Bl6 mouse AChE assessed as restoration of mouse diaphragm AChE activity at 50 to 200 uM using acetylthiocholine iodide as substrate by mouse phrenic nerve hemidiaphragm assay
T1 sequence (whole entry): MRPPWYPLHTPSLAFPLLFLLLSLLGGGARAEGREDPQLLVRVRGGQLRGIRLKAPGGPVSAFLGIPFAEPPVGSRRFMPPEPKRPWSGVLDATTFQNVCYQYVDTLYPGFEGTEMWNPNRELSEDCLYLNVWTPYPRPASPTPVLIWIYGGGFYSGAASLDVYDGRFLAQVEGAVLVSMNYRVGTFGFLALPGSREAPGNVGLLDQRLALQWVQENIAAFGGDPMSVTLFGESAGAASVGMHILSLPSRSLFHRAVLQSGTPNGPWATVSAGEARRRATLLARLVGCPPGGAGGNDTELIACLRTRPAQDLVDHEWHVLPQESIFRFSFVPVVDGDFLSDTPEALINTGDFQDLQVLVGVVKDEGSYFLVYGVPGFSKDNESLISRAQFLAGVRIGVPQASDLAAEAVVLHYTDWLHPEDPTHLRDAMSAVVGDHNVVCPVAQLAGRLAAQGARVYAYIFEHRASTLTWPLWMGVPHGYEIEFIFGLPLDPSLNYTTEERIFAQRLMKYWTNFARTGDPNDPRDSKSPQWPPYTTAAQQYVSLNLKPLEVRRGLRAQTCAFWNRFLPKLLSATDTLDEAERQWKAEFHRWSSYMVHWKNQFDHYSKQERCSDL

[2] = target: T1, Acetylcholinesterase (Mus musculus); assay: Ex vivo reactivation of GB-induced inhibition of C57/Bl6 mouse AChE assessed as restoration of mouse diaphragm AChE activity at 50 to 200 uM using acetylthiocholine iodide as substrate by mouse phrenic nerve hemidiaphragm assay
[3] = target: T1, Acetylcholinesterase (Mus musculus); assay: Ex vivo reactivation of VX-induced inhibition of C57/Bl6 mouse AChE assessed as restoration of mouse diaphragm AChE activity at 50 to 200 uM using acetylthiocholine iodide as substrate by mouse phrenic nerve hemidiaphragm assay
[4] = target: T1, Acetylcholinesterase (Mus musculus); assay: Ex vivo reactivation of GB-induced inhibition of C57/Bl6 mouse AChE assessed as restoration of muscle function at 50 to 200 uM using acetylthiocholine iodide as substrate by mouse phrenic nerve hemidiaphragm assay relative to control; parameters: scale not given: the % may be the effect or the level left
[5] = target: T1, Acetylcholinesterase (Mus musculus); assay: Ex vivo reactivation of GF-induced inhibition of C57/Bl6 mouse AChE assessed as restoration of muscle function at 50 to 200 uM using acetylthiocholine iodide as substrate by mouse phrenic nerve hemidiaphragm assay relative to control; parameters: scale not given: the % may be the effect or the level left
[6] = target: T1, Acetylcholinesterase (Mus musculus); assay: Ex vivo reactivation of VX-induced inhibition of C57/Bl6 mouse AChE assessed as restoration of muscle function at 50 to 200 uM using acetylthiocholine iodide as substrate by mouse phrenic nerve hemidiaphragm assay relative to control; parameters: scale not given: the % may be the effect or the level left

For `NC(=O)c1cc[n+](COC[n+]2ccc(/C=N/O)cc2/C=N/O)cc1`, the Activity [1] was “Active”, the Activity [2] was “Active” and the Activity [3] was “Active”. The Activity [4] was 60%, the Activity [5] was 60% and the Activity [6] was 60%.
